# Assays:
# [1] = test system: ragweed sensitized Beagle dogs; assay: Ragweed-induced nasal congestion, nasal cavity volume by acoustic rhinometry; type: in vivo; details: BID inhalation (1.6 mg deposition) + intranasal 30 mg from three days before challenge, vs vehicle, n=5, Two Way Anova p<0.0001
# Source text: Beagle dogs immunized with ragweed (RW) as puppies develop allergic immune responses. These allergic dogs show elevated total and specific serum IgE and increased numbers of eosinophils in their blood and lungs, as well as an increase in airway resistance and a decrease in dynamic compliance after a challenge with RW by inhalation or local instillation in defined lung lobes. Additionally, these dogs develop increased nasal congestion and inflammation following RW challenge in the nose.
# Ragweed sensitized beagle dogs (n=5) with preexisiting nasal and airway allergic responses were utilized in the animal study described in this Example. Dogs served as their own control and initially were treated with vehicle (sterile water) and then rested for 5 weeks prior to receiving the test compound. The target dose of calcium glycerophosphate was about 30 mg/dog twice daily. The maximum concentration of the compound used for inhalation and nasal instillation was 20 mg/ml due to solubility issues. […]
# (§1) FIG. 1 summarizes the study design for characterizing the effects of CGP on rhinitis symptoms in ragweed sensitized Beagle dogs. The baseline nasal cavity volume was first measured 3 days (day −3) before each of the vehicle and CGP treatments. […]
# Treatment occurred on Days 0 to 5 (only AM on Day 5). […] The pH of the compound (as administered for nasal inhalation) was recorded prior to administration. […]
# [2] = Solubility of CGP in water; type: physicochemical
# [3] = test system: histamine, leukotriene C4/D4/E4, prostaglandin D2 and E2 in nasal lavage fluid; assay: Mediators (histamine, leukotrienes, prostaglandins) in nasal lavage fluid after intranasal ragweed challenge; type: in vivo, Beagle dogs; details: vs vehicle; n=5
# Procedure: Ragweed sensitized beagle dogs (n=5) with preexisiting nasal and airway allergic responses were utilized in the animal study described in this Example. Dogs served as their own control and initially were treated with vehicle (sterile water) and then rested for 5 weeks prior to receiving the test compound. The target dose of calcium glycerophosphate was about 30 mg/dog twice daily. The maximum concentration of the compound used for inhalation and nasal instillation was 20 mg/ml due to solubility issues. Based on the aerosol testing only 1.6 mg/dog could be delivered by inhalation during a 15 minute exposure (20 mg/ml solution). In addition, each dog received twice daily an intranasal instillation of 30 mg (2×375 μl of 20 mg/ml in each nostril) given within 30 minutes after the end of the inhalation exposures.
# as §1
# Total nasal cells were determined using an automatic cell counter. […] At least four hundred inflammatory cells (or less if applicable) were counted and the percentage of specific cell types determined for each animal (slides in duplicates, 200 cells per slide). […]
substance,measurement,setting,value
calcium glycerophosphate,nasal cavity volume relative to baseline / nasal congestion after intranasal ragweed challenge,[1],significantly increased nasal cavity volume and therefore attenuated nasal congestion compared to vehicle treatment
same,nasal cavity volume relative to baseline / nasal congestion after intranasal ragweed challenge,[1]; listed as CGP,nasal congestion was significantly attenuated compared to vehicle treatment
same,solubility in water,[2],about 1 % by weight
same,maximum concentration used for inhalation and nasal instillation due to solubility issues,[2]; in sterile water,20 mg/mL
same,AUC of leukotriene C4/D4/E4 levels between 0 and 60 min,[3],leukotriene levels decreased in three dogs and increased in two dogs and no statistical significance was reached

# — patent publication US9861647B2, “Calcium glycerophosphate for treating and preventing respiratory diseases or conditions” (Prelief Inc., priority 2007, dated 2018)
